Values quoted from earlier work as cited in patent US20020037872A1, “N6 heterocyclic 5' modified adenosine derivatives” (CV Therapeutics, Inc., priority 1999, published 2002).

Protein sequences, listed by entry. Tags and fused reporters are not part of them.
UniProt P34970, whole entry: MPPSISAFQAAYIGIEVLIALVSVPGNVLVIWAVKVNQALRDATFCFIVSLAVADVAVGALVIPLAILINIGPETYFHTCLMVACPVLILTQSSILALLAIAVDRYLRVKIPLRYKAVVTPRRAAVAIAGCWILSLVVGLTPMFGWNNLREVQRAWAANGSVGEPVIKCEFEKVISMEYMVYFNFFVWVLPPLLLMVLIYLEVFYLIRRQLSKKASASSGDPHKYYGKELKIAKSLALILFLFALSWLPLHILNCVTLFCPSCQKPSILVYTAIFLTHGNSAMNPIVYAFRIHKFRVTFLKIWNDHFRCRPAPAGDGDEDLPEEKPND

Target: T1, A1 receptor (Oryctolagus cuniculus, UniProt P34970)
T1 construct: a rabbit ischemia model wherein 2-chloro-N6-cyclopentyladenosine (CCPA) and R-PIA were administered prior to ischemia; host or cells: rabbit in vivo
Conditions: administered prior to ischemia; cited from earlier work

For `C[C@H](Cc1ccccc1)Nc1ncnc2c1ncn2[C@@H]1O[C@H](CO)[C@@H](O)[C@H]1O` [R-PIA, R-N6-phenylisopropyladenosine], the “protection with respect to infarct size” value is given as “providing protection with respect to infarct size”.
